The record followed here is ChEMBL document CHEMBL1133341, “ORL1 receptor ligands: structure-activity relationships of 8-cycloalkyl-1-phenyl-1,3,8-triaza-spiro[4.5]decan-4-ones” (Bioorg Med Chem Lett, 2000).

The nature of assay [1]: Ratio of binding affinity for kappa receptors to that of rat ORL-1.
A short description of assay [2]: Ratio of binding affinity for mu receptors to that of rat ORL-1.

Take `O=C1NCN(c2ccccc2)C12CCN(C1CCCCCCCC1)CC2`: the results for the Selectivity in assay [1] and in assay [2] were 16 and 13, respectively.

With `O=C1NCN(c2ccccc2)C12CCN([C@H]1CC[C@@H](C3CCCCC3)CC1)CC2`, the Selectivity worked out at 19 in assay [1] and 1 in assay [2].

As for `CC(C)[C@H]1CC[C@@H](N2CCC3(CC2)C(=O)NCN3c2ccccc2)CC1`, the Selectivity in assay [1] stood at 330; in assay [2] it was 40.

For `CC(C)(C)[C@H]1CC[C@@H](N2CCC3(CC2)C(=O)NCN3c2ccccc2)CC1`, the Selectivity in assay [1] is 11; in assay [2], 2.

With `O=C1NCN(c2ccccc2)C12CCN(C1CCCCCCC1)CC2`, the Selectivity was 4.8 in assay [1] and 7 in assay [2].

Regarding `O=C1NCN(c2ccccc2)C12CCN(C1CCCCCC1)CC2`, the Selectivity was 2.5 in assay [1] and 11 in assay [2].

As to `O=C1NCN(c2ccccc2)C12CCN(C1CCCCCCCCCCC1)CC2`, the Selectivity in assay [1] turned out to be 3.1; in assay [2] it was 0.3.

As for `C[C@H]1CC[C@@H](N2CCC3(CC2)C(=O)NCN3c2ccccc2)CC1`, the Selectivity in assay [1] worked out at 8; in assay [2] it was 9.1.

In the case of `CC(C)[C@H]1CC[C@H](N2CCC3(CC2)C(=O)NCN3c2ccccc2)CC1`, the Selectivity in assay [1] came out at 6.8; in assay [2], 1.8.

Take `O=C1NCN(c2ccccc2)C12CCN(C1CCCCC1)CC2`: the Selectivity stood at 4 in assay [1] and 6.3 in assay [2].

As to `O=C1NCN(c2ccccc2)C12CCN([C@@H]1Cc3cccc4cccc1c34)CC2`, the Selectivity in assay [1] was 49; in assay [2], 9.8.

Regarding `CCC[C@H]1CC[C@@H](N2CCC3(CC2)C(=O)NCN3c2ccccc2)CC1`, the values for the Selectivity in assay [1] and in assay [2] were 29 and 3.6, respectively.

Take `O=C1NCN(c2ccccc2)C12CCN(C1CCCCCCCCC1)CC2`: the Selectivity in assay [1] worked out at 26; in assay [2], 8.2.

On to `O=C1NCN(c2ccccc2)C12CCN(C1CCCCCCCCCC1)CC2`, for which the values for the Selectivity in assay [1] and in assay [2] were 1.7 and 0.4, respectively.
